# Experimental data reported in ChEMBL document CHEMBL3390842 (Medchemcomm, 2012).
# Protein sequences, listed by entry. Tags and fused reporters are not part of them. Lines headed by an entry give the natural chain unless they say otherwise; changes in a name come on top.
# UniProt Q9HC97: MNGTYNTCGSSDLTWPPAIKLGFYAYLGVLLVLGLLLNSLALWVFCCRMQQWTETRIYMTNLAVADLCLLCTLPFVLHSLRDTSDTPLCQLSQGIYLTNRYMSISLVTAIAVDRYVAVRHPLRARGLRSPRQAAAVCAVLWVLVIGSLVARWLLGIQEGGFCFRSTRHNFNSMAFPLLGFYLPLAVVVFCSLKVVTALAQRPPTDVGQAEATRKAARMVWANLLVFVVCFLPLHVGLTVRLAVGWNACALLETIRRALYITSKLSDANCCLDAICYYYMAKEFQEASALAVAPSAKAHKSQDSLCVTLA
# What was measured:
# [1] = target: T1, G-protein coupled receptor 35 (Homo sapiens, UniProt Q9HC97); assay: Agonist activity at GPR35 in human HT-29 cells assessed as induction of whole cell dynamic mass redistribution at 50 uM after 50 mins by resonant waveguide grating biosensor analysis in presence of GPR35 antagonist ML-145
# [2] = target: T1, G-protein coupled receptor 35; assay: Agonist activity at GPR35 in human U2OS cells assessed as induction of beta-arrestin translocation at 64 uM after 5 hrs by beta-lactamase reporter gene assay in presence of GPR35 antagonist ML-145
# [3] = target: T1, G-protein coupled receptor 35; assay: Agonist activity at GPR35 in human HT-29 cells assessed as induction of whole cell dynamic mass redistribution at 32 uM after 50 mins by resonant waveguide grating biosensor analysis in presence of GPR35 antagonist ML-145; format: cell-based
# [4] = target: T1, G-protein coupled receptor 35; assay: Agonist activity at GPR35 in human U2OS cells assessed as induction of beta-arrestin translocation up to 1 mM after 5 hrs by beta-lactamase reporter gene assay
# [5] = target: T1, G-protein coupled receptor 35; assay: Agonist activity at GPR35 in human HT-29 cells assessed as induction of whole cell dynamic mass redistribution at 200 uM after 50 mins by resonant waveguide grating biosensor analysis in presence of GPR35 antagonist ML-145
# [6] = target: T1, G-protein coupled receptor 35; assay: Agonist activity at GPR35 in human HT-29 cells assessed as induction of whole cell dynamic mass redistribution at 50 nM after 50 mins by resonant waveguide grating biosensor analysis in presence of GPR35 antagonist ML-145
# [7] = target: T1, G-protein coupled receptor 35; assay: Agonist activity at GPR35 in human HT-29 cells assessed as induction of whole cell dynamic mass redistribution at 100 uM after 50 mins by resonant waveguide grating biosensor analysis in presence of GPR35 antagonist ML-145
compound,measurement,setting,value
O=[N+]([O-])c1ccc(O)cc1[N+](=O)[O-],Activity,[1],Active
CC(C)(c1cc([N+](=O)[O-])c(O)c([N+](=O)[O-])c1)c1cc([N+](=O)[O-])c(O)c([N+](=O)[O-])c1,Activity,[2],inactive
Cc1cc([N+](=O)[O-])c(O)c([N+](=O)[O-])c1,Activity,[3],inactive
same,Activity,[2],inactive
O=[N+]([O-])c1cccc(O)c1[N+](=O)[O-],Activity,[4],inactive
same,Activity,[5],Active
O=[N+]([O-])c1cc(C(=C(Cl)Cl)c2cc([N+](=O)[O-])c(O)c([N+](=O)[O-])c2)cc([N+](=O)[O-])c1O,Activity,[6],inactive
O=[N+]([O-])c1ccc([N+](=O)[O-])c(O)c1,Activity,[7],Active

# Activity calls are given as the source filed them. No cut-off for these calls is given here.
